Source: PubChem
MC4R barr agon: activates human MC4R beta-arrestin recruitment; activation, % at 8.9 µM; AID 540308; 360,000 compounds, 0.98% hits; U2OS MC4R beta-arrestin complementation, luminescence; percent of melanotan II response, DMSO zero;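 active = activation above a per-plate cutoff, the mean activation of sample wells on that plate plus 3 SD, cut at about 8% in these data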
NALP1 yeast inh: NALP1 inhibition. S. cerevisiae NALP1/ASC/caspase-1 growth, X-gal OD620, 72 h. inhibition, % at 10 µM. 280,000 compounds, 0.61% hits. AID 2071; in the data active = inhibition mostly above about 24%, no sharp cut-off; inactive = mostly below about 32%
ALR H2O2 inh: inhibitors of human sulfhydryl oxidase ALR; inhibition, % (no concentration beside the values); AID 485317; purified ALR, DTT oxidation, H2O2 HRP-luminol luminescence; 290,000 tested, 3.8% active; P55789;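 active means mean and each replicate at 75% or more; inconclusive means only one of the two met; inactive means neither met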;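 further: stock transfer was 7.5 nL into about 7.5 µL; 0% = neutral wells and 100% = wells with inactivated enzyme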
HDAC3 inh: human HDAC3 inhibition; O15379; recombinant HDAC3, fluorogenic peptide/trypsin coupled, fluorescence; inhibition, % at 8.3 µM; 320,000 compounds, 0.15% hits; AID 2718; in the data active = inhibition above about 26%, passing the limit was not always enough; inconclusive = no clear call, values can overlap the other calls
UUG fidelity: modulators of yeast start codon fidelity, primary screen, whole organism, S. cerevisiae, single point, plate reader; activity score, % at 18.7 µM; actives 0.13% (n = 350,000); S. cerevisiae UUG-firefly luciferase reporter, luminescence/redox ratio;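 active = replicate mean at a twofold rise or more, about +100% in these data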;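 also: firefly luciferase made from a UUG start codon reports start codon fidelity; reporter light over untreated wells divided by growth signal over untreated wells; some hits fall short of that in this replicate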
MC4R antagonist: human MC4R antagonism in cAMP assay; P32245; MC4R-expressing cells, MTII-stimulated cAMP, LANCE TR-FRET; inhibition, % at 6.5 µM; 360,000 compounds, 0.48% hits; AID 540295;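 active = inhibition above its plate's cutoff, the mean of tested wells on that plate plus 3 SD, cut at about 29% in these data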;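 also: 0% = Melanotan II alone and 100% = Melanotan II plus saturating MCL0020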
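Material – human MC4R-expressing U2OS cells · Repeats – no replicates · Detection – TR-FRET with Eu-cAMP and labeled anti-cAMP, 671 nm · Times – compound 30 min, challenge 1 h, detection 1 h · Compound – single nominal compound dose of 6.5 µM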
Numbers without * were called inactive; ? = inconclusive; . = no result. Only some compounds are listed: those with a hit (about 4.2% of all), similar ones and a draw of the others.

ALR H2O2 inh | MC4R barr agon | HDAC3 inh | UUG fidelity | MC4R antagonist | NALP1 yeast inh | compound
99.5* | 0.7 | -2.6 | -28.5 | -9.0 | -0.5 | C/C(=N\Nc1ccc(C(=O)O)cc1)c1ccc2c(c1)Nc1ccccc1S2
99.2* | -0.8 | 6.1 | -16.2 | 0.8 | 4.2 | O=S(=O)(c1ccc(Cl)cc1)c1cc(O)ccc1O
97.8* | 0.0 | 0.5 | -13.2 | 13.5 | -2.3 | O=S(=O)(c1ccccc1)c1cc(O)ccc1O
. | . | . | 7.5 | . | . | C[C@@H]1CN([C@H](C)CO)C(=O)c2cc(NC(=O)CCC(F)(F)F)ccc2O[C@@H](C)CCCCO[C@@H]1CN(C)C(=O)Cc1ccccc1
98.8* | -0.7 | 7.0 | -4.8 | 14.4 | 1.7 | Cc1cccc(Nc2nc(-c3ccc(O)c(O)c3)cs2)n1
99.4* | -1.7 | 2.5 | -21.9 | 12.5 | 6.0 | Cc1cccnc1Nc1nc(-c2ccc(O)c(O)c2)cs1
98.4* | -0.4 | 7.7 | -18.2 | -8.2 | 4.8 | Oc1ccc(-c2csc(Nc3ccccn3)n2)cc1O
5.6 | -2.9 | 6.3 | -25.1 | 10.1 | . | CC(=O)Nc1ccc(-c2csc(Nc3ccccn3)n2)cc1
98.3* | 0.3 | 2.8 | -25.4 | -3.6 | 4.5 | Cc1ccnc(Nc2nc(-c3ccc(O)c(O)c3)cs2)c1
37.9 | -1.2 | 5.2 | -26.6 | -5.1 | -0.5 | Cc1ccnc(Nc2nc(-c3ccc(O)cc3)cs2)c1

4 records picked at random from the list so far, as already listed:
ALR H2O2 inh | MC4R barr agon | HDAC3 inh | UUG fidelity | MC4R antagonist | NALP1 yeast inh | compound
. | . | . | 7.5 | . | . | C[C@@H]1CN([C@H](C)CO)C(=O)c2cc(NC(=O)CCC(F)(F)F)ccc2O[C@@H](C)CCCCO[C@@H]1CN(C)C(=O)Cc1ccccc1
99.2* | -0.8 | 6.1 | -16.2 | 0.8 | 4.2 | O=S(=O)(c1ccc(Cl)cc1)c1cc(O)ccc1O
99.4* | -1.7 | 2.5 | -21.9 | 12.5 | 6.0 | Cc1cccnc1Nc1nc(-c2ccc(O)c(O)c2)cs1
97.8* | 0.0 | 0.5 | -13.2 | 13.5 | -2.3 | O=S(=O)(c1ccccc1)c1cc(O)ccc1O

Later entries:
ALR H2O2 inh | MC4R barr agon | HDAC3 inh | UUG fidelity | MC4R antagonist | NALP1 yeast inh | compound
99.0* | -0.7 | -0.5 | 0.9 | -4.8 | -1.5 | COC(=O)C1(Cc2ccc(O)cc2)OC(=O)C(O)=C1c1ccc(O)cc1 (stereo not given)
. | 0.4 | -1.6 | -1.4 | -1.8 | -18.9 | O=C(NC1(Cc2ccc(O)cc2)CCCCC1)c1ccccc1
77.3* | -0.2 | 7.3 | . | 4.0 | 39.4 | Cc1cc(C2(c3ccc(O)c(C)c3)OC(=O)c3ccccc32)ccc1O
. | . | . | 15.8 | . | . | Cc1cc(C(=O)Nc2cccc3c2O[C@@H](CN(C)S(=O)(=O)c2ccccc2)[C@@H](C)CN([C@@H](C)CO)C3=O)n(C)n1
. | 4.0 | 2.0 | 12.7 | 7.4 | 82.1* | C(C#CCCCCCCCCC[n+]1ccccc1)#CCCCCCCCCC[n+]1ccccc1
3.3 | 9.2* | 9.7 | -13.0 | 1.7 | -3.6 | FC(F)(F)c1cccc(NC(=S)N2CCN(c3cccc(C(F)(F)F)c3)CC2)c1
9.8 | 4.0 | 0.7 | . | 17.4 | 22.7 | Fc1ccc(NC(=S)N2CCN(c3cccc(C(F)(F)F)c3)CC2)cc1
. | 5.5 | 14.9 | -8.6 | 22.6 | 37.1* | Fc1cc(F)c(C2SCCN2C(=S)Nc2cccc(C(F)(F)F)c2)c(F)c1 (stereo not given)
. | . | . | -2.5 | . | . | CNC[C@H]1OCCCC[C@H](C)Oc2ccc(NS(=O)(=O)c3cn(C)cn3)cc2C(=O)N([C@@H](C)CO)C[C@H]1C
. | . | . | 49.1 | . | . | O=C(N[C@H]1CC[C@@H](CCNS(=O)(=O)c2ccccc2)O[C@H]1CO)c1cccc(F)c1

Carrying on.
ALR H2O2 inh | MC4R barr agon | HDAC3 inh | UUG fidelity | MC4R antagonist | NALP1 yeast inh | compound
. | . | . | 2.1 | . | . | Cc1noc(C)c1S(=O)(=O)N(C)C[C@@H]1OCCCC[C@H](C)Oc2ccc(NC(=O)NC3CCCCC3)cc2C(=O)N([C@H](C)CO)C[C@@H]1C
98.0* | -2.0 | 8.6 | -20.0 | 6.5 | 19.9 | COc1cc(/C=C2/C(=O)NN(c3ccc(Cl)cc3)C2=O)cc(Br)c1O
98.4* | -2.7 | . | -3.9 | 12.0 | 4.1 | COc1cc(/C=C2/C(=O)NN(c3ccc(Cl)c(Cl)c3)C2=O)cc([N+](=O)[O-])c1O
? | -2.1 | 5.7 | -15.3 | 4.9 | 20.0 | COc1cc(/C=C2/C(=O)NN(c3ccc(F)cc3)C2=O)cc(Cl)c1O
. | . | . | 0.9 | . | . | CO[C@H]1CN(C)C(=O)c2cc(NC(=O)C3CC3)ccc2OC[C@@H](C)N(C(C)=O)C[C@@H]1C
4.3 | . | 19.4 | . | . | 45.7* | CCOC(=O)C1=C(C)Nc2nnnn2C1c1c[nH]c2ccccc12 (stereo not given)
92.5* | -2.4 | -3.3 | -12.3 | 5.9 | 12.9 | CN1CCN(c2c(/C=N/O)c3ccccc3n2C)CC1
5.9 | -1.1 | -1.3 | 5.4 | 4.1 | -2.6 | Cc1ccccc1C(=O)O/N=C/c1c(N2CCOCC2)n(C)c2ccccc12
. | . | . | -7.9 | . | . | Cc1ccc(S(=O)(=O)N(C)C[C@@H]2OCCCC[C@@H](C)Oc3ccc(NS(=O)(=O)c4cn(C)cn4)cc3C(=O)N([C@@H](C)CO)C[C@H]2C)cc1
99.6* | 4.8 | 5.5 | -29.1 | 21.4 | . | CCOC(=O)/C(=N\Nc1ccc(Br)cc1)N1CC(C)OC(C)C1 (stereo not given)
